Reference: ChEMBL document CHEMBL1152285, “Studies of the metabolic stability in cells of 5-(trifluoroacetyl)thiophene-2-carboxamides and identification of more stable class II histone deacetylase (HDAC) inhibitors” (Bioorg Med Chem Lett, 2008)
Activity calls are given as the source filed them. The rule behind the calls is not given here.

Amino acid sequences for entries named in this document (tags omitted). A change or cut given only in a name is not applied to a line headed by its entry.
UniProt P56524: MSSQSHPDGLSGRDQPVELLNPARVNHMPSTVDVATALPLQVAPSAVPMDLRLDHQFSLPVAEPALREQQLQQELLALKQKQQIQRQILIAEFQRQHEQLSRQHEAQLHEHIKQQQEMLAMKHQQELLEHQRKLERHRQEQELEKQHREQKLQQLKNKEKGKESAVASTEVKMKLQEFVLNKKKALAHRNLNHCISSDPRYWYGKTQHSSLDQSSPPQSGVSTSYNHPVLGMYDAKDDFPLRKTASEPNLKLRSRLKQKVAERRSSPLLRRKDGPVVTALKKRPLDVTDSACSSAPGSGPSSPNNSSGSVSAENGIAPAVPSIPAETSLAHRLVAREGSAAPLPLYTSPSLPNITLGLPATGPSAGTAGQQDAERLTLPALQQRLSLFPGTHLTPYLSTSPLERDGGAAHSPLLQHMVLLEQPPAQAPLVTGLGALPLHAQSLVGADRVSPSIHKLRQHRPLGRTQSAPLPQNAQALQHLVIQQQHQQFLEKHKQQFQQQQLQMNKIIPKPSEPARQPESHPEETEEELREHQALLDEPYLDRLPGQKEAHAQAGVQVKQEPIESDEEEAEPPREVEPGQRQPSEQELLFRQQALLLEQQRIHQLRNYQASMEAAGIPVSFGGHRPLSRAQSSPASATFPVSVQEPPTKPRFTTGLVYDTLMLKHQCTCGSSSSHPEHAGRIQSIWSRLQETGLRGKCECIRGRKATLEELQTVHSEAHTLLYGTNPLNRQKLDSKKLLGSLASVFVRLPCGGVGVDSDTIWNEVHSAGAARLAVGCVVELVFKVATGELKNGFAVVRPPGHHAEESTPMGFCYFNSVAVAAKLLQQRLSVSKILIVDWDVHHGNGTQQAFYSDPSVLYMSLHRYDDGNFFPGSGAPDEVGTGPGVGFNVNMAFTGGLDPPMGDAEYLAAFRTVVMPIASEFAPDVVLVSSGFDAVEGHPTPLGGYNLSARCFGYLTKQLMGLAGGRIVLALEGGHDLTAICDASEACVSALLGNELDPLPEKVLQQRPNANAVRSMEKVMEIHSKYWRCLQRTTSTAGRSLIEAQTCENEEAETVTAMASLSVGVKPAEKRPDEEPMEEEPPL

Tested on: not listed separately
Assay: Toxicity in human […] by MTS assay

Structure (SMILES) | Activity
CC(NC(=O)c1ccc(C(=O)C(F)(F)F)s1)c1ccncc1 (stereo unspecified) | Non-toxic
COc1cccc(N2CCN(C(=O)c3ccc(C(=O)C(F)(F)F)s3)CC2)c1 | Non-toxic
CC(NC(=O)c1ccc(C(=O)C(F)(F)F)s1)c1cccc2ccccc12 (stereo unspecified) | Non-toxic
O=C(c1ccc(C(=O)C(F)(F)F)s1)N1CCC(c2nnc(-c3ccccc3)o2)CC1 | Non-toxic

Target: Histone deacetylase 4 (Homo sapiens) (UniProt P56524)
Assay: Inhibition of histidine-tagged HDAC4 wild type catalytic domain purified from Escherichia coli up to 10 uM after 10 mins

Activity | Structure (SMILES)
inactive | O=C(c1ccc(C(=O)C(F)(F)F)[nH]1)N1CCc2ccccc21
inactive | O=C(NCC1CCCCC1)c1ccc(C(=O)C(F)(F)F)cn1
